Legend:
[1] = target: mKO-^MalFNTPBP2 (E. coli); experiment: FRET or BRET; two-plasmid spectral FRET in E. coli LMC500 cells; mCherry fusion as acceptor, mKO fusion as donor; Gb4 medium, steady state at 28 C, 15 uM IPTG for two mass doublings, FAGA-fixed; acceptor FRET efficiency (EfA) by spectral unmixing
[2] = target: PBP2 (wild type), fused to mKO or to mCherry (E. coli) (UniProt P0AD65); experiment: as above

mCh-MreD (from UniProt P0ABH4 1-162) (natural protein)
EfA (acceptor FRET efficiency) [1]: 5.3%
EfA (acceptor FRET efficiency) [2]: 4.3%
